Measurements published in patent publication US20260384450A1, “MACROCYCLIC AMINOPYRIDINE COMPOUNDS AS EGFR INHIBITORS” (published 2026).
Like-named read-outs stand apart in the source and are kept apart here.

Sequences of proteins named here, by UniProt entry; tags and fusion partners are left off. A change or cut given only in a name is not applied to a line headed by its entry. A line that says so, or that is headed by a name, gives the form on record, which may keep a tag or linker. Residues count along the entry.
UniProt P00533, 25-1210 limits assumed: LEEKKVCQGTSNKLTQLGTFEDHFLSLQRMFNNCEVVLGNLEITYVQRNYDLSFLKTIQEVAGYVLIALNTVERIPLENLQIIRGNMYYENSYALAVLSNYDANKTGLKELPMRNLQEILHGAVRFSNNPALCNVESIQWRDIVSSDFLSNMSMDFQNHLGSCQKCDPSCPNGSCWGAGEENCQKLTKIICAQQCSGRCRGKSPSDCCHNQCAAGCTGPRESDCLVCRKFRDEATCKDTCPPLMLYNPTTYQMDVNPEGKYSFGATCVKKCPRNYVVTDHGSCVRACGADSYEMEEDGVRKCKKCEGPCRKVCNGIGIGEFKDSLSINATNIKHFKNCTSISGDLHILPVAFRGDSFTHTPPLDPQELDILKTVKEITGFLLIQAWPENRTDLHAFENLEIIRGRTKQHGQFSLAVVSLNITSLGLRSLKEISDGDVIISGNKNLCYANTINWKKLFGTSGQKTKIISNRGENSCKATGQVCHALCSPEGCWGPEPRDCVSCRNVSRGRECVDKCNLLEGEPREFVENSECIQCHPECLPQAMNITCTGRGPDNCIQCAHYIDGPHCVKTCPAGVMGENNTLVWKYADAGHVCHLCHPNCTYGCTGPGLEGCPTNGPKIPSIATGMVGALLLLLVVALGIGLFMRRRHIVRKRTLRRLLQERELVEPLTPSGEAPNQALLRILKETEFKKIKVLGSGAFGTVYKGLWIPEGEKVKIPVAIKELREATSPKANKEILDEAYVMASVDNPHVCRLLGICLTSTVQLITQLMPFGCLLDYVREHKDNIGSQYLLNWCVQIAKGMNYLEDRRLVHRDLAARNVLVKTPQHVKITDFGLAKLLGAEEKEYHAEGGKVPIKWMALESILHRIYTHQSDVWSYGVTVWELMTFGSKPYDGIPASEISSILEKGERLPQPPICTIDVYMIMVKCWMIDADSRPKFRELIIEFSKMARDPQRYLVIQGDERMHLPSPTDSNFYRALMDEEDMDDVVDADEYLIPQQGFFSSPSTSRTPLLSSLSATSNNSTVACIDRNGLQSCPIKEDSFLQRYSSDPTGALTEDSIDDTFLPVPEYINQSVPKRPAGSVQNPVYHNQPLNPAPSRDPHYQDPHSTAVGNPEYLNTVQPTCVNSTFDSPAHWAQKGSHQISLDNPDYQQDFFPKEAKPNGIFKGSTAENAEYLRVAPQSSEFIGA
UniProt P00533, 25-1210 C797S/L858R limits assumed: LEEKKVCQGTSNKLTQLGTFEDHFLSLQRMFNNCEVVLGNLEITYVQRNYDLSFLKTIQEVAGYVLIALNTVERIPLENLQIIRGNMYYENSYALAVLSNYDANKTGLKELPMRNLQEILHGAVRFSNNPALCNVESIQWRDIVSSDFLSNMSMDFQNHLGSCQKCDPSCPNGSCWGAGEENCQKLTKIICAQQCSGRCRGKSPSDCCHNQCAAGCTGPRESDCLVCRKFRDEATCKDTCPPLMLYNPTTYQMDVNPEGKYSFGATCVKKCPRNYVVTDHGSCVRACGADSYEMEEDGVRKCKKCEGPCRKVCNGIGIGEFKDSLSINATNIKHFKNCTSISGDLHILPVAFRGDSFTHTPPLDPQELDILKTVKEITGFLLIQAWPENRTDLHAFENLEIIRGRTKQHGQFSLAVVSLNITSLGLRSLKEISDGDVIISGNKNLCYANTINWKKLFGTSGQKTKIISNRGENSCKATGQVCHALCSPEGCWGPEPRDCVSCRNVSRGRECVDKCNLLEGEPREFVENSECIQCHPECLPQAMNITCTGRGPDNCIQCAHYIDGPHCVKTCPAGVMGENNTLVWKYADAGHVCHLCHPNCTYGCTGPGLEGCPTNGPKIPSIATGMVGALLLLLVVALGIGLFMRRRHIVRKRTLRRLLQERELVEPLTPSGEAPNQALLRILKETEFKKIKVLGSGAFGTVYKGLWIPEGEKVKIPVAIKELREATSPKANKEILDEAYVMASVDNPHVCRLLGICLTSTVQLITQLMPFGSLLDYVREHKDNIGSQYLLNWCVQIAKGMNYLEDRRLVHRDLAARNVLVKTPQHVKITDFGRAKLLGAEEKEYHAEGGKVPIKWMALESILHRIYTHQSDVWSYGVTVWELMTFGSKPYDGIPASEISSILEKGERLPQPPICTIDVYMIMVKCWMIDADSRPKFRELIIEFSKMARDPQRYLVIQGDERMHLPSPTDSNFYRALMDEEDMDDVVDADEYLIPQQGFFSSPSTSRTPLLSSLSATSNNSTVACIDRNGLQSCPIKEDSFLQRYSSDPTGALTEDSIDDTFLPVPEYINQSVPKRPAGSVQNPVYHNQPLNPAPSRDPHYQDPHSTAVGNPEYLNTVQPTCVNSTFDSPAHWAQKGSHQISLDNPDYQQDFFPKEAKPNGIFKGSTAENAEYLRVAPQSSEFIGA
UniProt P00533, 25-1210 T790M/C797S/L858R limits assumed: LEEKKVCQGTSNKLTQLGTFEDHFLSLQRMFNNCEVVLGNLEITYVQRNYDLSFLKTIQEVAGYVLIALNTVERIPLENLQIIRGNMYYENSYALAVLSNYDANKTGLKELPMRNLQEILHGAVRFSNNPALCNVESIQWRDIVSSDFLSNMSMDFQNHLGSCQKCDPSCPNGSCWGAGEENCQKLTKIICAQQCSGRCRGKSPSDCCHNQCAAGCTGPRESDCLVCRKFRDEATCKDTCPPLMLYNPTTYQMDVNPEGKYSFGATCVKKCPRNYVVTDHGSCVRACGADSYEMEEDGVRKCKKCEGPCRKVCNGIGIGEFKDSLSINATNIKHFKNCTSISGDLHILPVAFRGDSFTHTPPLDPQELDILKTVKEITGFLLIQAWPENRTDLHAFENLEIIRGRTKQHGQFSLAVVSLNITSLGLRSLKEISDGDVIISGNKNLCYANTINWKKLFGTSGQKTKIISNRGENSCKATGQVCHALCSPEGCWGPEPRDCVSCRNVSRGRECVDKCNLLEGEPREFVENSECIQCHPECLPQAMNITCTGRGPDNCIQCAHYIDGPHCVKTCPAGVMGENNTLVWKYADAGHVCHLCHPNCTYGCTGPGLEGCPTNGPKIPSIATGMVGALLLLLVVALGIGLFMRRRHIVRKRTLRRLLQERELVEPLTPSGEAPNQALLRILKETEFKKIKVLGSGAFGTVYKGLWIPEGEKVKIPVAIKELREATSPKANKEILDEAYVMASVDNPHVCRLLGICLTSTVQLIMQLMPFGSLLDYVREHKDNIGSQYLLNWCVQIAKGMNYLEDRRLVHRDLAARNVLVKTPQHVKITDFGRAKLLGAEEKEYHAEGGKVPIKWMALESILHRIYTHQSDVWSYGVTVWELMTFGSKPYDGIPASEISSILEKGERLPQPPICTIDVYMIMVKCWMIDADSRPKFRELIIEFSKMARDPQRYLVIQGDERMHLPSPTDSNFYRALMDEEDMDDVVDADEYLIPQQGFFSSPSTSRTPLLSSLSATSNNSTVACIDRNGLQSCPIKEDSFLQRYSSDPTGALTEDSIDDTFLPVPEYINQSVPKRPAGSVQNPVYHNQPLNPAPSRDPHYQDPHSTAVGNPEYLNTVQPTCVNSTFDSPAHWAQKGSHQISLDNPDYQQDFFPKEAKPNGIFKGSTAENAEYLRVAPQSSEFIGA
UniProt P00533, with tags, fused parts or gaps DEL746-750/C797S limits assumed: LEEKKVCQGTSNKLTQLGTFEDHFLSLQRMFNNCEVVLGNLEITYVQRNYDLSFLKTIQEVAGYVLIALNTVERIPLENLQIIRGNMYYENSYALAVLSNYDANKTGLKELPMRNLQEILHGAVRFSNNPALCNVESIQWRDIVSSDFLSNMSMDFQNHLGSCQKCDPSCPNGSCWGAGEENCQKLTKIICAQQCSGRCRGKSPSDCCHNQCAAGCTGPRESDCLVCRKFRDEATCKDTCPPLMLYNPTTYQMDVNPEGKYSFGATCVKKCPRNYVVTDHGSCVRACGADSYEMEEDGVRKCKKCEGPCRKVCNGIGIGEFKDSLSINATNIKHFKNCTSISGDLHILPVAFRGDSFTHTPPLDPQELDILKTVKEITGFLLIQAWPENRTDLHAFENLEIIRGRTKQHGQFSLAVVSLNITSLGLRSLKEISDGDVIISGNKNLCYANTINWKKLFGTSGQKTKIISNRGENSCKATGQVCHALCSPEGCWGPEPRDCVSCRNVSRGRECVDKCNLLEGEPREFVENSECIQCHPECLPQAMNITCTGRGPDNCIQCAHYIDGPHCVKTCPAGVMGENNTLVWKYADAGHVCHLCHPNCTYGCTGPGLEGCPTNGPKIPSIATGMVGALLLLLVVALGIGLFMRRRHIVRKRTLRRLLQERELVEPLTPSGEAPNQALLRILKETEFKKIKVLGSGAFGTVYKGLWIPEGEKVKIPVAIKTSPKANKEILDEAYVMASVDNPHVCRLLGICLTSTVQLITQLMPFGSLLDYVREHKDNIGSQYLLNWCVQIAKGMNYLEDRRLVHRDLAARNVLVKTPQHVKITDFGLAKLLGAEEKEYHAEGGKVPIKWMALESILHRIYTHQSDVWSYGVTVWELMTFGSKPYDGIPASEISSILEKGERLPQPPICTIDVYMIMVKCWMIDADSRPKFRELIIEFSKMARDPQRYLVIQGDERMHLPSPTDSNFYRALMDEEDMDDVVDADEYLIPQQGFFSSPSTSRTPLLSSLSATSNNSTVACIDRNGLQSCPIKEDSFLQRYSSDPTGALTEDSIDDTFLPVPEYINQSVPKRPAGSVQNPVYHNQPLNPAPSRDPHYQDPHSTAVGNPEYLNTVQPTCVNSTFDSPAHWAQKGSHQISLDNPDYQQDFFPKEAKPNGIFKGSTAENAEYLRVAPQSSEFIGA
UniProt P00533, with tags, fused parts or gaps DEL746-750/T790M/C797S limits assumed: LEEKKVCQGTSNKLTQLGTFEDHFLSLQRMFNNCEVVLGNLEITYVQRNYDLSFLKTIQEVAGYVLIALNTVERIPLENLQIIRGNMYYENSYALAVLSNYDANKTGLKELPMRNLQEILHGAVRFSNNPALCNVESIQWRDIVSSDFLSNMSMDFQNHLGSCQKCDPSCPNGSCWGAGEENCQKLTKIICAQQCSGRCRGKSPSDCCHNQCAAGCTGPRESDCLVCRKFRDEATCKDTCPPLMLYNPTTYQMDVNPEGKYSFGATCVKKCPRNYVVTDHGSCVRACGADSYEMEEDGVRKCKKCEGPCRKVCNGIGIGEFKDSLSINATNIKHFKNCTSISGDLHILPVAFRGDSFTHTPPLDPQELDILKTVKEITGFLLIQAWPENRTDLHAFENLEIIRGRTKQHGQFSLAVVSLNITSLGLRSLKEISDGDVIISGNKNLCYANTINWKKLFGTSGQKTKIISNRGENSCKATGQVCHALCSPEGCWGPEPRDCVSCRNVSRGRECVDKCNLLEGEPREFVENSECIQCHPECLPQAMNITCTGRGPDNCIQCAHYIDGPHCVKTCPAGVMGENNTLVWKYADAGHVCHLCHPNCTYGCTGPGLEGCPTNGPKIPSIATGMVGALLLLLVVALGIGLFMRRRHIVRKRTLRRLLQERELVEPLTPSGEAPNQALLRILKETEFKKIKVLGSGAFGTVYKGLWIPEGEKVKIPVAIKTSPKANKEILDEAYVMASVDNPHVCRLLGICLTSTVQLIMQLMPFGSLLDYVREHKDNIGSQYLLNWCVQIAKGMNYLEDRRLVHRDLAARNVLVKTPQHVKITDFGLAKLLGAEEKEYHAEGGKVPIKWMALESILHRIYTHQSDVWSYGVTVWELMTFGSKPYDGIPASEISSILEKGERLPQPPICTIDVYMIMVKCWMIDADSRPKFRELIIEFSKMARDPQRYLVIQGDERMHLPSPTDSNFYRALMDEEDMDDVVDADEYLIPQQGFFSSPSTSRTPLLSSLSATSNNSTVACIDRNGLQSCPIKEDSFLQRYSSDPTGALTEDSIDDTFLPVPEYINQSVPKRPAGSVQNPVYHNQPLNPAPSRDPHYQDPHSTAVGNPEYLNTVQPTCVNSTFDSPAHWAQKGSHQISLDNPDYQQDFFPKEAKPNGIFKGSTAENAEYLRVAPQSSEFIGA

Experiments:
[1] = biological target: EGFR WT (Homo sapiens, UniProt P00533); assay: Biochemical EGFR kinase assay (Lance Ultra TR-FRET), wildtype
Protocol: (§1) Biochemical EGFR kinase assays were conducted using Lance Ultra time-resolved fluorescence resonance energy transfer (TR-FRET) technology from Perkin-Elmer. Compounds of the invention were initially diluted to 20 mM in 100% DMSO for storage and made into kinase buffer solution to create a compound concentration ranging from 0.003 μM and 10 μM.
(§2) Briefly, each EGFR enzyme wildtype (EGFR WT), double mutant [del19/C797S (EGFR D19CS) and L858R/C797S (EGFR LRCS)], triple mutant [del19/T790M/C797S (EGFR D19TMCS) and L858R/T790M/C797S (EGFR LRTMCS)], serial diluted EGFR inhibitors, substrate of ULight-poly-GT peptide (PerkinElmer; TRF0100-M) and different concentrations of ATP (Km and 100 μM final assay concentration) were mixed in kinase assay buffer (50 mM HEPES pH 7.4, 10 mM MgCl2, 1 mM EGTA, 2 mM DTT and 0.01% Tween-20) and were added to a 384-well plate (Optiplate™ 384, white, PerkinElmer; 6007290).
(§3) Each kinase reactions were incubated at room temperature for 1 hour and then stopped by the addition of 4 μL of stop solution (10 mM EDTA). The specific Europium-labeled-anti-phosphopeptide antibody (PerkinElmer, AD0069) diluted in LANCE detection buffer was then added to a final concentration of 2 nM. After 60 minutes incubation at room temperature the LANCE signal was measured on an EnVision Multilabel Reader (Perkin-Elmer). Excitation wavelength was set at 320 nm and emission monitored at 615 nm (donor) and 665 nm (acceptor). The IC50 values were determined using GraphPad prism software (GraphPad Software, Inc., San Diego, CA, USA).

[2] = biological target: EGFR LRCS (L858R/C797S) (Homo sapiens, UniProt P00533, C797S/L858R); assay: Biochemical EGFR kinase assay (Lance Ultra TR-FRET), double mutant L858R/C797S
Protocol: as §1, §2, §3

[3] = biological target: EGFR LRTMCS (L858R/T790M/C797S) (Homo sapiens, UniProt P00533, C797S/L858R/T790M); assay: Biochemical EGFR kinase assay (Lance Ultra TR-FRET), triple mutant L858R/T790M/C797S
Protocol: as §1, §2, §3

[4] = biological target: EGFR D19CS (del19/C797S) (Homo sapiens, UniProt P00533, C797S/DEL746-750); assay: Biochemical EGFR kinase assay (Lance Ultra TR-FRET), double mutant del19/C797S
Protocol: as §1, §2, §3

[5] = biological target: EGFR D19TMCS (del19/T790M/C797S) (Homo sapiens, UniProt P00533, C797S/DEL746-750/T790M); assay: Biochemical EGFR kinase assay (Lance Ultra TR-FRET), triple mutant del19/T790M/C797S
Protocol: as §1, §2, §3

[6] = read-out: IC50, EGFR WT, 1 mM, ATP 1 mM, EGFR wildtype
[7] = read-out: IC50, EGFR WT, Km, ATP at Km, EGFR wildtype
[8] = read-out: IC50, EGFR-LRCS, 1 mM, ATP 1 mM, EGFR L858R/C797S
[9] = read-out: IC50, EGFR-LRCS, Km, ATP at Km, EGFR L858R/C797S
[10] = read-out: IC50, EGFR LRTMCS, 1 mM, ATP 1 mM, EGFR L858R/T790M/C797S
[11] = read-out: IC50, EGFR LRTMCS, Km, ATP at Km, EGFR L858R/T790M/C797S
[12] = read-out: IC50, EGFR-D19CS, 1 mM, ATP 1 mM, EGFR del19/C797S
[13] = read-out: IC50, EGFR-D19CS, Km, ATP at Km, EGFR del19/C797S
[14] = read-out: IC50, EGFR D19TMCS, Km, ATP at Km, EGFR del19/T790M/C797S
[15] = read-out: EGFR WT IC50, ATP 1 mM
[16] = read-out: EGFR LRCS IC50, ATP 1 mM
[17] = read-out: EGFR LRCS IC50, ATP Km
[18] = read-out: EGFR LRTMCS IC50, ATP 1 mM
[19] = read-out: EGFR LRTMCS IC50, ATP Km
[20] = read-out: EGFR D19CS IC50, ATP 1 mM
[21] = read-out: EGFR D19CS IC50, ATP Km
[22] = read-out: EGFR D19TMCS IC50, ATP 1 mM
[23] = read-out: EGFR D19TMCS IC50, ATP Km

SMILES	IC50 [1, 6]	IC50 [1, 7]	IC50 [2, 8]	IC50 [2, 9]	IC50 [3, 10]	IC50 [3, 11]	IC50 [4, 12]	IC50 [4, 13]	IC50 [5, 14]	IC50 [1, 15]	IC50 ([1]; read-out: EGFR WT IC50, ATP Km)	IC50 [2, 16]	IC50 [2, 17]	IC50 [3, 18]	IC50 [3, 19]	IC50 [4, 20]	IC50 [4, 21]	IC50 [5, 22]	IC50 [5, 23]
Cc1nn(C)c2c1-c1nccc(n1)Nc1cc(c(-c3ccc(N4CCN(C)CC4)cn3)cn1)NCC[C@H](C)O2	–	–	–	–	–	–	–	–	–	> 1000 nM	10 to 100 nM	< 10 nM	< 10 nM	< 10 nM	< 10 nM	< 10 nM	< 10 nM	< 10 nM	< 10 nM
C[C@H]1CCNc2cc(ncc2-c2cc(C(F)(F)F)n(C)n2)Nc2ccnc(n2)-c2cnn(C)c2O1	–	–	–	–	–	–	–	–	–	> 1000 nM	< 10 nM	10 to 100 nM	< 10 nM	< 10 nM	< 10 nM	< 10 nM	< 10 nM	< 10 nM	< 10 nM
Cc1nn(C)c2c1-c1nccc(n1)Nc1cc(c(-c3cccc(C(C)(C)O)n3)cn1)N[C@@H](C)CCO2	> 1000 nM	100 to 1000 nM	100 to 1000 nM	10 to 100 nM	10 to 100 nM	< 10 nM	10 to 100 nM	10 to 100 nM	< 10 nM	–	–	–	–	–	–	–	–	–	–
COc1cccnc1-c1cnc2cc1N[C@@H](C)CCOc1c(cnn1C)-c1nccc(n1)N2	–	–	–	–	–	–	–	–	–	> 1000 nM	100 to 1000 nM	> 1000 nM	100 to 1000 nM	10 to 100 nM	< 10 nM	> 1000 nM	100 to 1000 nM	10 to 100 nM	< 10 nM
Cc1nn(C)c2c1-c1nccc(n1)Nc1cc(c(-c3ccc(N4CCN(C)CC4)cn3)cn1)N[C@@H](C)CCO2	–	–	–	–	–	–	–	–	–	> 1000 nM	10 to 100 nM	< 10 nM	< 10 nM	< 10 nM	< 10 nM	< 10 nM	< 10 nM	< 10 nM	< 10 nM
CN1CCN(Cc2cnc(-c3cnc4cc3NCC(C)(C)COc3c(cnn3C)-c3nccc(n3)N4)c(F)c2)CC1	–	–	–	–	–	–	–	–	–	> 1000 nM	< 10 nM	10 to 100 nM	< 10 nM	< 10 nM	< 10 nM	< 10 nM	< 10 nM	< 10 nM	< 10 nM

The next lines start with the values.

IC50 [1, 6]	IC50 [1, 7]	IC50 [2, 8]	IC50 [2, 9]	IC50 [3, 10]	IC50 [3, 11]	IC50 [4, 12]	IC50 [4, 13]	IC50 [5, 14]	IC50 [1, 15]	IC50 ([1]; read-out: EGFR WT IC50, ATP Km)	IC50 [2, 16]	IC50 [2, 17]	IC50 [3, 18]	IC50 [3, 19]	IC50 [4, 20]	IC50 [4, 21]	IC50 [5, 22]	IC50 [5, 23]	SMILES
> 1000 nM	< 10 nM	100 to 1000 nM	< 10 nM	10 to 100 nM	< 10 nM	10 to 100 nM	< 10 nM	< 10 nM	–	–	–	–	–	–	–	–	–	–	Cc1nn(C)c2c1-c1nccc(n1)Nc1cc(c(-c3cnc(CN4CCC(F)(F)CC4)cn3)cn1)N[C@@H](C)CCO2
> 1000 nM	< 10 nM	< 10 nM	< 10 nM	< 10 nM	< 10 nM	< 10 nM	< 10 nM	< 10 nM	–	–	–	–	–	–	–	–	–	–	Cc1nn(C)c2c1-c1nccc(n1)Nc1cc(c(-c3ncc(CN4CC(C(C)(C)F)C4)cc3F)cn1)NCC[C@H](C)O2
–	–	–	–	–	–	–	–	–	> 1000 nM	< 10 nM	100 to 1000 nM	< 10 nM	< 10 nM	< 10 nM	10 to 100 nM	10 to 100 nM	< 10 nM	< 10 nM	C[C@H]1CCOc2c(cnn2C)-c2nccc(n2)Nc2cc(c(-c3ncc(CN4CC(OC(F)F)C4)cc3F)cn2)N1
> 1000 nM	10 to 100 nM	10 to 100 nM	< 10 nM	< 10 nM	< 10 nM	10 to 100 nM	< 10 nM	< 10 nM	–	–	–	–	–	–	–	–	–	–	Cc1nn(C)c2c1-c1nccc(n1)Nc1cc(c(-c3ncc(CN4CC5(CC(O)C5)C4)cc3F)cn1)N[C@@H](C)CCO2
